This note sets out measurements from ChEMBL document CHEMBL2146410, “Novel N-Substituted Benzimidazolones as Potent, Selective, CNS-Penetrant, and Orally Active M1 mAChR Agonists” (ACS Med Chem Lett, 2010).

Chains of the proteins cited; added tags and fusions are not shown.
UniProt P08173, whole entry: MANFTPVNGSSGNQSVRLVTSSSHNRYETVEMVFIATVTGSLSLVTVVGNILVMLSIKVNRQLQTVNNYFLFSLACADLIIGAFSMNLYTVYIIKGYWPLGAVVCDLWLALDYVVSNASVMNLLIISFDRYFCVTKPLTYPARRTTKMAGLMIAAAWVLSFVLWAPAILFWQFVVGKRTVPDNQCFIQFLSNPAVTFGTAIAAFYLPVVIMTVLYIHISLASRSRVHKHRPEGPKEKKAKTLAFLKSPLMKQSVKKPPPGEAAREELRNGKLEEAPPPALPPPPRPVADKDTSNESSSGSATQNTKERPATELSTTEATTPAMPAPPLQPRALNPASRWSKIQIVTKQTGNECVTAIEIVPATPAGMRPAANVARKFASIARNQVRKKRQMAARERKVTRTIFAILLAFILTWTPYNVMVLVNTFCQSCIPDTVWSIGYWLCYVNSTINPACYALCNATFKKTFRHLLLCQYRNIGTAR
UniProt P35462, whole entry: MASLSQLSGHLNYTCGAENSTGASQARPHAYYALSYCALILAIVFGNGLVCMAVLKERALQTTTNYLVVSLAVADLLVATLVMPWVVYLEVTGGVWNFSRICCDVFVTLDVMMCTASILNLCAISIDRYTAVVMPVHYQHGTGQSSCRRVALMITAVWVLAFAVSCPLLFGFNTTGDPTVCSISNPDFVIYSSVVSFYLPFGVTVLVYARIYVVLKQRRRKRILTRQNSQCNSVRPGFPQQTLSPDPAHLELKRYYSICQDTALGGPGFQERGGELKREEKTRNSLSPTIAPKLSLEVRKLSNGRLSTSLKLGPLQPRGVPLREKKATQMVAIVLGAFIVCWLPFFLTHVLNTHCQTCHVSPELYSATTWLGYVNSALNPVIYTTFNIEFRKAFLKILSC
UniProt P08172, whole entry: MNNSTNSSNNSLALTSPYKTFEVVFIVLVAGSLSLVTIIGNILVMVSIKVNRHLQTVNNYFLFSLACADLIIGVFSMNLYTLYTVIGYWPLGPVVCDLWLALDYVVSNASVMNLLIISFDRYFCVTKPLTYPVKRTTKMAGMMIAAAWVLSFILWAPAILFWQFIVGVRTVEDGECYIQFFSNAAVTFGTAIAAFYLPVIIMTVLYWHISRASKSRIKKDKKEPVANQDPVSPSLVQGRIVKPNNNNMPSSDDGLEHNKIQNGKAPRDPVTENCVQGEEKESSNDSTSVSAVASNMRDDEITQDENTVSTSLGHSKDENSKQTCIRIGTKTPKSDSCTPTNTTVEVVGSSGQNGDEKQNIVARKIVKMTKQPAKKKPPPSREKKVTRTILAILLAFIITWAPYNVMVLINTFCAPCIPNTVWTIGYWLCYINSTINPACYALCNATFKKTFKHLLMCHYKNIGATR
UniProt P08908, whole entry: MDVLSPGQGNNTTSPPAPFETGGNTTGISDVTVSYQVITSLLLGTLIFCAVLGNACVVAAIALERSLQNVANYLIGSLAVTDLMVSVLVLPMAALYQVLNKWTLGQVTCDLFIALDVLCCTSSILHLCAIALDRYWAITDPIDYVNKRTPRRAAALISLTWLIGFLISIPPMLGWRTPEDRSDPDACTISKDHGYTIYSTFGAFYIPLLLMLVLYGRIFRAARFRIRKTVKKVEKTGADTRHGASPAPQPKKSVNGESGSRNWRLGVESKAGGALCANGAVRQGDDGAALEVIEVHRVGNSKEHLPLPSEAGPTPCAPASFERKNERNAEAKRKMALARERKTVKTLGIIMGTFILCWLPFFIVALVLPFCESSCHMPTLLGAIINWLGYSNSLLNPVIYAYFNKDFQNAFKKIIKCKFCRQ
UniProt P28223, whole entry: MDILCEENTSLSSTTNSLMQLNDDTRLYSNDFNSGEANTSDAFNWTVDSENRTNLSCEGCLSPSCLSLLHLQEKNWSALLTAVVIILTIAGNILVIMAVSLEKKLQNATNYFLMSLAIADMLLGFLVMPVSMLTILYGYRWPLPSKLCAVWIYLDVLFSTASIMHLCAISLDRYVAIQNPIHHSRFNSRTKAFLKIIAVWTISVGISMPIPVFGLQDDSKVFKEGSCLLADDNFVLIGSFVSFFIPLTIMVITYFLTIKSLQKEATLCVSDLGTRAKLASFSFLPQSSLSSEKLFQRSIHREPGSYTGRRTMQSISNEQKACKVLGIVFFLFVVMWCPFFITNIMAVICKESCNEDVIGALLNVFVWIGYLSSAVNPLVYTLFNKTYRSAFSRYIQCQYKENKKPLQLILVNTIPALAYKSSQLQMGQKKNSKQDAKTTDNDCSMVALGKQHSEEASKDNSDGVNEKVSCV
UniProt Q12809, whole entry: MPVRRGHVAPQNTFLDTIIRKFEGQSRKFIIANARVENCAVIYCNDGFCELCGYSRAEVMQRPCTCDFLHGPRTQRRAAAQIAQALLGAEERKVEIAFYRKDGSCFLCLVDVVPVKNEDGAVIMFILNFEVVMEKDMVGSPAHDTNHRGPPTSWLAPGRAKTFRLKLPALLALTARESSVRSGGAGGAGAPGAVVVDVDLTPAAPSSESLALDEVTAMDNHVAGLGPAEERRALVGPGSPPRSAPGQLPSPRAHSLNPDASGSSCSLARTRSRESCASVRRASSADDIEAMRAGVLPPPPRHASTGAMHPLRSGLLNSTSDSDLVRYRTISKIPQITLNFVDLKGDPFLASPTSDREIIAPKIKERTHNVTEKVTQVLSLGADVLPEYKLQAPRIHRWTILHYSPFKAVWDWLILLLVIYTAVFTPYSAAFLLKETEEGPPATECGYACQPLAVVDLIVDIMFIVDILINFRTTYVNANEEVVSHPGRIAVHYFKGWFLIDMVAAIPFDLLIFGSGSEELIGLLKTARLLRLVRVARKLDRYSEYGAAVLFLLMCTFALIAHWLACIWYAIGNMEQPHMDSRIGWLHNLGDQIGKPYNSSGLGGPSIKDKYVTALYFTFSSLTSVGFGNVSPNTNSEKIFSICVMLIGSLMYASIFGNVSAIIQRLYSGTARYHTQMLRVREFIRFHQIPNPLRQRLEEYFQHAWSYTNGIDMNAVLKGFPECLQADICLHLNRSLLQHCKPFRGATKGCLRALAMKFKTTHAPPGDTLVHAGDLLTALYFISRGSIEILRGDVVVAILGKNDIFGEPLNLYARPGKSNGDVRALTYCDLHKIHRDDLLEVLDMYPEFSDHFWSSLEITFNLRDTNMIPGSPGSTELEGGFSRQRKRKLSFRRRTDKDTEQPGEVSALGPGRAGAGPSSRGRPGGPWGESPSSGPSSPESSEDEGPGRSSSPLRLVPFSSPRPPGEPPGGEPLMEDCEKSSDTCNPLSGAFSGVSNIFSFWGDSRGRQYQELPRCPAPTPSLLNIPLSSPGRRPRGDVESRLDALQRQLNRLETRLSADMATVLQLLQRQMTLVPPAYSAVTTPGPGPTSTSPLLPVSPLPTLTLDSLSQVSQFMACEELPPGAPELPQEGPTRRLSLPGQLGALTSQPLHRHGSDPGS
UniProt P08912, whole entry: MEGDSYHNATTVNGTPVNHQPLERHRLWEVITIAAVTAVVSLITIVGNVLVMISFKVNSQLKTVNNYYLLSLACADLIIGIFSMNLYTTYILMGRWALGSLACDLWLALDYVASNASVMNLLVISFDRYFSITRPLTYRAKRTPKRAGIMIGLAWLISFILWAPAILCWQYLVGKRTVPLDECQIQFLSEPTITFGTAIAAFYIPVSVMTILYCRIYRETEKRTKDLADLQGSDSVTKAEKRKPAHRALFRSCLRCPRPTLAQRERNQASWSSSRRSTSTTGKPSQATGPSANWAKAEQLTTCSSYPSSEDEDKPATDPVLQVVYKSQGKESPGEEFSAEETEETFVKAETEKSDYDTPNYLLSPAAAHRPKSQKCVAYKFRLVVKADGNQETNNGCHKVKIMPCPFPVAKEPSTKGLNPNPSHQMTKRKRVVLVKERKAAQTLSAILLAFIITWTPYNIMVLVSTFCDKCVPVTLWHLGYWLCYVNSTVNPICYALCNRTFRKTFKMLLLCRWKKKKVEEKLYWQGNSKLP
UniProt P14416, whole entry: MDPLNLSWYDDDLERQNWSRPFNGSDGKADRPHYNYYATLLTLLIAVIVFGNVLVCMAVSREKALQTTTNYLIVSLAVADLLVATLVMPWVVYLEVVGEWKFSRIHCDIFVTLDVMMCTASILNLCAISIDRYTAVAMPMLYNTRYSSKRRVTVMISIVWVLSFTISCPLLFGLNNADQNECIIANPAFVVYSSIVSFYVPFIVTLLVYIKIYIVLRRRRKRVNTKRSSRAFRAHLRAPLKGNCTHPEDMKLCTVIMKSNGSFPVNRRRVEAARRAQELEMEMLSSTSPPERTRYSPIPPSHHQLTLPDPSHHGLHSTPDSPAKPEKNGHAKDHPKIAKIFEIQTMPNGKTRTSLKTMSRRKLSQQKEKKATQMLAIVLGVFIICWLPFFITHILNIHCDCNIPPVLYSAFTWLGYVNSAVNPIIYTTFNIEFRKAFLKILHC
UniProt P20309, whole entry: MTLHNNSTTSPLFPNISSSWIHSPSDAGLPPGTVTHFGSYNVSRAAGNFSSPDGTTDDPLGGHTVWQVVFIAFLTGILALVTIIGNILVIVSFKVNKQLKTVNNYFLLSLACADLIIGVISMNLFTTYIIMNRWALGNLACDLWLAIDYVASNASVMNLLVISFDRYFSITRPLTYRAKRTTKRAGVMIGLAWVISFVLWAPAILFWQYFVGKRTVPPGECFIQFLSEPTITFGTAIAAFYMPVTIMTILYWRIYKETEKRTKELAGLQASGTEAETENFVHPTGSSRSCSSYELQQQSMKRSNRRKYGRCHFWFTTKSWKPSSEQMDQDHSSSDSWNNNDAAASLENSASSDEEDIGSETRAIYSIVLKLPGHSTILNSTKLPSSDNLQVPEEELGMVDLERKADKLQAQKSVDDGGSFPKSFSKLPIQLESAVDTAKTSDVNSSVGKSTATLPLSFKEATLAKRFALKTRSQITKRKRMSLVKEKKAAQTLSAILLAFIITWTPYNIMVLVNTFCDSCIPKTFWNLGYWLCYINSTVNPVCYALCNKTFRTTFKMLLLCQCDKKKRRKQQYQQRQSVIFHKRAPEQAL
UniProt P11229, whole entry: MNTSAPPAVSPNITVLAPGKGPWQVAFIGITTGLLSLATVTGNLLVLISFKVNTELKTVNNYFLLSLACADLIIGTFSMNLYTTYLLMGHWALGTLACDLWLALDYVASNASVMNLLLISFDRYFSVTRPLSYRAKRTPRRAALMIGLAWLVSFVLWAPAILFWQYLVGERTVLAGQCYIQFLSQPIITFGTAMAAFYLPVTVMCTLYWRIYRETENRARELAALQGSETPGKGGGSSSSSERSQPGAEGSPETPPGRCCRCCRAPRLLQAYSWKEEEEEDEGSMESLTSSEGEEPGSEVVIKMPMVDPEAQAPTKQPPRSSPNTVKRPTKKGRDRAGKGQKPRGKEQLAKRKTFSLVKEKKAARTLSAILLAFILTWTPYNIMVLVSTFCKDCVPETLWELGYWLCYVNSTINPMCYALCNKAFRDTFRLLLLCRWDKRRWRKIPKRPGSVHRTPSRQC

Data set [1] has as its target Muscarinic acetylcholine receptor M4 (Homo sapiens, UniProt P08173). Description: Agonist activity at human muscarinic M4 receptor expressed in CHO cells coexpressing Galpha16 subunit assessed as intracellular calcium mobilization after 10 to 15 mins by FLIPR assay.
Data set [2] concerns Liver microsomes. Description: Intrinsic clearance in human liver microsomes. It is filed as ADME, Microsome. In general terms: Microsomes from liver hold many membrane-bound enzymes, among them those of drug oxidation.
Data set [3] has as its target D(3) dopamine receptor (Homo sapiens, UniProt P35462). Description: Binding affinity to dopamine D3 receptor.
For data set [4], the target named is Muscarinic acetylcholine receptor M2 (Homo sapiens, UniProt P08172). Description: Agonist activity at human muscarinic M2 receptor expressed in CHO cells coexpressing Galpha16 subunit assessed as intracellular calcium mobilization after 10 to 15 mins by FLIPR assay.
Data set [5] addresses 5-hydroxytryptamine receptor 1A (Homo sapiens, UniProt P08908). Description: Activity at 5HT1A receptor.
The target in data set [6] is 5-hydroxytryptamine receptor 2A (Homo sapiens, UniProt P28223). Description: Binding affinity to 5HT2A receptor.
The target in data set [7] is Voltage-gated inwardly rectifying potassium channel KCNH2 (Homo sapiens, UniProt Q12809). The data set is described as follows: Binding affinity to human ERG.
Data set [8] addresses Muscarinic acetylcholine receptor M5 (Homo sapiens, UniProt P08912). Description: Agonist activity at human muscarinic M5 receptor expressed in CHO cells assessed as intracellular calcium mobilization after 10 to 15 mins by FLIPR assay. For orientation: A change in cytosolic calcium serves as a functional read-out for many receptors and channels.
Data set [9] deals with D(2) dopamine receptor (Homo sapiens, UniProt P14416). Description: Binding affinity to dopamine D2 receptor.
Data set [10] concerns the target Muscarinic acetylcholine receptor M3 (Homo sapiens, UniProt P20309). The data set is described as follows: Agonist activity at human muscarinic M3 receptor expressed in CHO cells assessed as intracellular calcium mobilization after 10 to 15 mins by FLIPR assay.
Data set [11] addresses Muscarinic acetylcholine receptor M1 (Homo sapiens, UniProt P11229). Description: Agonist activity at human muscarinic M1 receptor expressed in CHO cells assessed as intracellular calcium mobilization after 10 to 15 mins by FLIPR assay.

This is a selection: effects in other tests are not listed, and their absence says nothing.

With `O=c1[nH]c2ccccc2n1C1CCN(C2CCCCC2)CC1`, the negative-log EC50 (pEC50) (usually the negative decadic logarithm of the EC50, by convention in mol/L) in data set [1] is 7.7; in data set [4] it was 7.1; in data set [5], less than 5.5; in [8], less than 5; in data set [10] it was 5.4; in [11] it was 7.9. In data set [2], this compound yielded a CLH of 1.9 mL/min/g. Also, the pKi (usually the Ki on a negative log10 scale, so that one unit is a factor of ten) in [3] is less than 6.3; in data set [6], less than 5.6; in data set [9] it was less than 5.9. Also, in data set [7], the negative-log IC50 (pIC50) (commonly −log10 of the IC50, conventionally taken in molar units) is less than 4.2.
